Chains of the proteins cited; added tags and fusions are not shown. Residues count along the entry.
UniProt G1SFD9, 1-524: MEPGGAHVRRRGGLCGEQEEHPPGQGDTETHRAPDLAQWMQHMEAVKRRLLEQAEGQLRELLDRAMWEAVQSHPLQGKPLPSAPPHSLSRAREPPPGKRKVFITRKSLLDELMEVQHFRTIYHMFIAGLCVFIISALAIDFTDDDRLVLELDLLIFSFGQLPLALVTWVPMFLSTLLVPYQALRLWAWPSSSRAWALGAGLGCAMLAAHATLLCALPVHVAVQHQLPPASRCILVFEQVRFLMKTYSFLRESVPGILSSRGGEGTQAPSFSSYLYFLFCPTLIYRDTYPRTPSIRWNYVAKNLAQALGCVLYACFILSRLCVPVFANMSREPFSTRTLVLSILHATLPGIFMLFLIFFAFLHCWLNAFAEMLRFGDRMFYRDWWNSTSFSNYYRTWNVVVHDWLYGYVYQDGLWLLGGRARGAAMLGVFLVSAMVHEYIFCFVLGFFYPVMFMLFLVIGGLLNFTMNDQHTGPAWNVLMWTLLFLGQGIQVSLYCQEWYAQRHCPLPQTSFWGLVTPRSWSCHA

According to ChEMBL document CHEMBL1125457, “Inhibitors of acyl-CoA:cholesterol acyltransferase. 1. Identification and structure-activity relationships of a novel series of fatty acid anilide hypocholesterolemic agents” (J Med Chem, 1992):

Molecular target: O-acyltransferase (Oryctolagus cuniculus, UniProt G1SFD9)
Experiment: In vitro inhibition of acyl coenzyme A:cholesterol acyltransferase, in intestinal microsomes isolated from cholesterol-fed rabbits
Set-up: species or system Intestine
How it was run: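 Rabbit intestinal mucosa scraped, washed, homogenized in phosphate/KCl/EDTA/sucrose buffer; microsomes pelleted at 100000g and stored at -70 °C. Microsomes (0.3 mg protein) with BSA (0.5 mg) and inhibitor in DMSO/Tween-20 preincubated 5 min at 37 °C. [1-14C]oleoyl-CoA (10 nmol, 0.05 μCi) then added for 5 min. Cholesteryl oleate extracted, separated by TLC and counted by scintillation. Four dilutions per compound, in triplicate.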

Row | SMILES | IC50
1 | CCCCCCCC/C=C\CCCCCCCC(=O)Nc1ccccc1 [OLEIC ACID ANILIDE] | 26 µM
2 | CCCCCCCCCCCCC(C)C(=O)Nc1c(OC)cc(OC)cc1OC (configuration not stated) | 0.13 µM
